This passage reports half-life results from PMC3086141 (Circulation. Cardiovascular interventions, 2011).

One may read the half-life as how long it takes for the measured level to halve. Read a high half-life as slow loss.

The nature of the series: Quantification of bivalirudin concentration in plasma of PCI patients. In kind it is in vivo. Conditions: both, human, iv. In outline:
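Test compound given to 22 PCI patients as an IV bolus followed by continuous infusion. Plasma sampled at baseline, about 5 min post-bolus, 30 min into infusion (or at PCI end if earlier), and 5 min, 15 min and 2 h after infusion stopped. Levels measured by LC/MS/MS with a […] detection threshold. Data given as mean ± SD.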

`CC[C@H](C)[C@H](NC(=O)[C@H](CCC(=O)O)NC(=O)[C@H](CCC(=O)O)NC(=O)[C@H](Cc1ccccc1)NC(=O)[C@H](CC(=O)O)NC(=O)CNC(=O)[C@H](CC(N)=O)NC(=O)CNC(=O)CNC(=O)CNC(=O)CNC(=O)[C@@H]1CCCN1C(=O)[C@H](CCCNC(=N)N)NC(=O)[C@@H]1CCCN1C(=O)[C@H](N)Cc1ccccc1)C(=O)N1CCC[C@H]1C(=O)N[C@@H](CCC(=O)O)C(=O)N[C@@H](CCC(=O)O)C(=O)N[C@@H](Cc1ccc(O)cc1)C(=O)N[C@@H](CC(C)C)C(=O)O` [bivalirudin] yielded a half-life of 29.3 min.
